Biological target: hFIXa (Homo sapiens (Human), UniProt P00740)
Assay: Determination of inhibitory activity against Factor IXa (cleavage of fluorescent peptide CH3SO2-D-CHG-Gly-Arg-AFC)
Assay type: biochemical

Amino acid sequences for entries named in this document (tags omitted). Residues count along the entry.
UniProt P00740, 227-461: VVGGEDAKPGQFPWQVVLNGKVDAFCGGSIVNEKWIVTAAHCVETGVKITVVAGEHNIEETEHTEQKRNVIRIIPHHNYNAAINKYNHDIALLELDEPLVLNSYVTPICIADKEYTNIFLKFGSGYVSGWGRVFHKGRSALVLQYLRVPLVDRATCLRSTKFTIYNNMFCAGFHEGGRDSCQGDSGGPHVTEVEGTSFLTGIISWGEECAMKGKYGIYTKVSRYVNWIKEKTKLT
UniProt P00740, 47-191 partner: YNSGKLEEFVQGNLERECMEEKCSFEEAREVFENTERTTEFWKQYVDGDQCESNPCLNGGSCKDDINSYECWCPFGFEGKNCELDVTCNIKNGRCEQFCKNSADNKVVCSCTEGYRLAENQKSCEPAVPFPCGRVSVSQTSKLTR

| SMILES | IC50 |
| --- | --- |
| Cc1ccc2c3c(n(CCC(=O)O)c2c1)CC[C@](NC(=O)c1c(Cl)cc(-n2cnnc2)cc1Cl)(c1cccc(Cl)c1)C3 [Example 123] | 3.6 nM |
| COc1ncn(-c2ccc(C(=O)N[C@]3(c4ccccc4)CCc4c(C(=O)O)c5cc(C)ccc5n4C3)c(OC)c2)n1 [Example 158] | 8.55 nM |
| Cc1cc(O)c2c3c(nn2c1)CCC(NC(=O)c1c(C)cc(-n2cnnc2)cc1Cl)(c1ccccc1)C3 (centres unmarked) [Example 115] | 13.9 nM |
| Cc1cc(O)c2c3c(nn2c1)CCC(NC(=O)c1c(Cl)cc(-n2cnc(C)n2)cc1Cl)(c1ccccc1)C3 (centres unmarked) [Example 38] | 10.9 nM |
| COC(=O)c1ccc(-c2c3n(c4ccc(C)cc24)C[C@@](NC(=O)c2ccc(-n4cnnc4)cc2Cl)(c2ccccc2)CC3)cn1 [Example 212] | 7.19 nM |

Continued by falling IC50, values first:

| IC50 | SMILES |
| --- | --- |
| 63.3 nM | Cc1ccc2c3c(nn2c1)CCC(C)(NC(=O)c1ccc(-n2cnnc2)cc1Cl)C3 (centres unmarked) [Example 2, 2-Chloro-N-(2,8-dimethyl-1,2,3,4-tetrahydropyrido[1,2-b]indazol-2-yl)-4-(4H-1,2,4-triazol-4-yl)benzamide] |
| 11.5 nM | Cc1ccc2c(c1)nc1n2C[C@@](NC(=O)c2ccc(-n3cnc(C)n3)cc2Cl)(c2cccc(C(F)(F)F)c2)CC1 [Example 105] |
| 4.27 nM | Cc1ccc2c(c1)c(-c1cccnc1)c1n2C[C@@](NC(=O)c2ccc(-n3cnnc3)cc2Cl)(c2ccccc2)CC1 [Example 172, 2-chloro-N-[(7S)-2-methyl-7-phenyl-10-pyridin-3-yl-6,7,8,9-tetrahydropyrido[1,2-a]indol-7-yl]-4-(4H-1,2,4-triazol-4-yl)benzamide] |
